# Antibody variant affinities, Ab-14 heavy chain, assay B

Binding partner: SARS-CoV-2 spike HR2 peptide, sequence PDVDLGDISGINAS.

Parent: Ab-14, a human scFv built as VH, the linker GGGGSGGGGSGGGGS, VL. Only the CDRs of the heavy chain vary.
VH: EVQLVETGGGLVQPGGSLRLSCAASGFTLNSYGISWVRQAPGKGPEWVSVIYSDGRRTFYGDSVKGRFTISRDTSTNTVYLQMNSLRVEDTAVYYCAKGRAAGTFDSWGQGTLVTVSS
VL: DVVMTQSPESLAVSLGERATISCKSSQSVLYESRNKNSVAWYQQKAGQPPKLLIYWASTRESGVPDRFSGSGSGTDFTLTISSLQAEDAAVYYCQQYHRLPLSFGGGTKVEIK

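Designed CDR sequences, proposed from the first random library and measured here. Group labels follow the data file (Ctrl: baseline library sampled from a position-specific scoring matrix, with some repeated check sequences; Rand: our label for a block that the file lists under HC and that is probably the random mutants of the ten best first-round binders; En: ensemble of fine-tuned language models; GP: Gaussian process model; GPLM: also part of the Gaussian process libraries; HC: hill climbing; Gen: genetic algorithm; Gibbs: Gibbs sampling; a sequence that several methods proposed may carry one label only). The assay is AlphaSeq: two haploid yeast populations carry antibody and antigen on their surface. Mating (16 h, 30 °C) was followed by selection of diploids and sequencing of their barcodes. Scores were corrected for input abundance and mapped to Kd with protein pairs of known affinity run in the same pool. Mating was done six times.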

Variants are written as CDR1, CDR2 and CDR3 of the heavy chain (limits as in the source). Parent: GFTLNSYGIS, VIYSDGRRTFYGDSVK, GRAAGTFDS.
The read-out is the apparent dissociation constant on a log10 scale (nM): the lower, the stronger.
A mean of the replicates is given; it leaves out those without a signal.
Where no diploid with the target was found in any replicate, the entry reads "nd": below detection, most likely a poor binder, though not proof of it.
Of ten entries with the parent sequence, four were seen in most replicates (averages 0.34 to 2.37), three in one and three in none, so single entries are noisy.
Nonspecific signal, from three strains lacking the peptide, appeared in 1% of pairings of all heavy chain designs, centred on 2.08 (5% of these signals below 0.84); values are not corrected for it.
The authors averaged sequences with at least three values out of six and counted those with two or fewer as poor binders.
Values of this round are not directly comparable with the first-round values of the same sequences.

CDR-H1	CDR-H2	CDR-H3	group	mean log10 Kd (nM)	seen in
GFTLNDYGIS	VIYSDGRRTVYSDSVK	GRAAGTFDS	GPLM_HC	nd	0/6
GFKLDEYGIS	VIYADGCRKAYADSFK	GKTTFSKFV	En_Gibbs	nd	0/6
GFDLDEYGIS	VIYADGCRVSYANNVK	GLLGKLVVV	En_Gibbs	nd	0/6
GFSLNSYGIS	VIYSDGKRTFYADSVK	GRTAGTFDS	GPLM_Gen	0.37	6/6
GFDLNEYGIS	VIYADGRRTQYIDSVK	GEVAGTFDS	En_HC	0.00	6/6
GFTLNSYGIS	VIYSDGRHTFYGDSVK	GRAAGTFDP	Ctrl	nd	0/6
GFTLNSYGIS	VIYSDGRRTFYDDSVK	GAVAGTFDS	GP_HC	0.83	6/6
GFNLLEYGIS	VIYADGRRTFYTDSFK	GGSGKDLYT	En_Gibbs	nd	0/6
GYHLNSYGIS	VIYSDGRRTFYGDDVK	GDAAGTFDS	Ctrl	nd	0/6
GFTLNDYGIS	VIYSDGRRTFYGDSVK	GRTAGTFDL	GPLM_Gen	0.65	6/6
GFNLDEYGIS	VIYADGQRVQYDDPVK	GEQAGTVMV	En_Gibbs	nd	0/6
GFTLNEYGIS	VIYADGRRTFYIDAFK	GMIAGTFMS	Ctrl	nd	0/6
GFNLNEYGIS	VIYADGQRTFYADSVK	GQVAGTFDM	En_HC	-0.54	6/6
GFDLNEYGIS	VIYADGQRTAYSDSVK	GEVAGTFDM	En_Gen	0.07	6/6
GFTLNSYGIS	VIYSDGRRTFYHDSVK	LRAAGTFSS	Ctrl	nd	0/6
GFTLGEYGIS	VIYSDGRRTFYGDSVK	GRAAVTKDQ	Rand	nd	0/6
GFDLEEYGIS	VIYADGQRTAYADSVK	GNVAGTFDT	En_Gen	-0.16	6/6
GFDLDEYGIS	VIYADGRRTFYTDSVK	GQNAGTFDQ	En_HC	0.80	6/6
FFTLESYGIS	VIYADGRRTFYGDSVK	GRAAGTFKS	GP_HC	nd	0/6
GFTLNSYGIS	VIYSDGRRTFYGDSVR	GRAAGAFDS	Ctrl	nd	0/6
GFDLNEYGIS	VIYADGMRTAYADSVK	GVNAGTFDI	En_Gen	-0.30	6/6
GFQLNSYGIS	VIYSDGRRTFYADKVK	GRQAGTFDS	GP_Gibbs	1.40	6/6
GFGLNMYGIS	VIYSDGRRTFYGDSVK	GRTAGTFDS	GP_Gen	1.91	4/6
GFTLNEYGIS	VIYSDGRRTFYSDSVK	GREAGTFDV	GP_HC	-0.57	6/6
GFNLNEYGIS	VIYADGKRTFYADSVK	GGNAGTFDV	En_HC	-0.52	6/6
GFGLDEYGIS	VIYADGVRRSFIDNVK	GFDGEVSIV	En_Gibbs	nd	0/6
GFSLNEYGIS	VIYSDGRRTFYGDSVK	GRAANTFDQ	GP_HC	nd	0/6
GFHLNKYGIS	VIYSDGRRTFYGDSVK	GRAAGWFNS	Rand	nd	0/6
GFDLVEYGIS	VIYADGIRTVVSNDVK	GNVAGTIDV	En_Gibbs	0.26	6/6
GFDLNEYGIS	VIYADGMRTYYADSVK	GETAGTFDQ	En_Gen	-0.16	6/6
GFDLNEYGIS	VIYADGKRTAYIDSVK	GHNAGTFDV	En_HC	-0.18	6/6
GFVLNSYGIS	VIYSDGMRTFYVDSVK	GRTAGTFDS	GP_Gibbs	1.89	1/6
SFSLNSYGIS	VIYSDGRRTFYADSVK	GSEAGTFDS	GP_Gibbs	1.30	2/6
GMDLDEYGIS	VIYADGSRVFYVQDVK	GTVDTVGDV	En_Gibbs	nd	0/6
GFDLNEYGIS	VIYADGKRTFYTDSVK	GEFAGTFDQ	En_HC	nd	0/6
GFTLNSYGIS	VIYSDGRRTFYSDSVK	GSDAGTFDS	GP_HC	2.33	1/6
GFDLNEYGIS	VIYADGKRTYYADDVK	GNNAGTFDV	En_Gen	nd	0/6
GFTLNSYGIS	VIYADGRRTFYGDSVK	GQAAGTFDR	GPLM_Gen	0.95	6/6
GFTLNDYGIS	VIYSDGRRTFYADSVK	GRNPGTFDS	Ctrl	0.48	6/6
GFNLAEYGIS	VIYADGRRVYYADAVK	GKNGENFSF	En_Gibbs	nd	0/6

Further variants, results first:

mean log10 Kd (nM)	seen in	CDR-H1	CDR-H2	CDR-H3	group
-0.65	6/6	GFNLDEYGIS	VIYADGRRTFYADSVK	GETAGTFDT	En_HC
nd	0/6	GFDLNSYGIS	VIYSDGRRTFYGDSVK	GQNAGTFDS	GP_Gen
nd	0/6	GVTLNMYGIS	VIYSDGRRTFYIDSVK	GRAAGTFDI	Ctrl
1.48	6/6	GFDLDEYGIS	VIYADGMRTYYADSVK	GQNAGTFDV	En_Gen
1.12	5/6	GFELNSYGIS	VIYSDGRRTFYTDSVK	GDAAGTFDS	GPLM_Gibbs
nd	0/6	GFWLNEYGIS	VIYSDGRRTFYHDSVK	GRAAGTFDC	GP_HC
0.53	6/6	GFTLESYGIS	VIYSDGRRTFYADSVK	GRVAGTFDT	GP_Gibbs
-0.82	6/6	GFDLNEYGIS	VIYADGKRTAYADSVK	GANAGTFDL	En_Gen
3.25	1/6	GFNIDEYGIS	VIYADGVRTAYADKVK	GFNWNLSVN	En_Gibbs
1.03	6/6	GFYLNEYGIS	VIYSDGRRTFYGDSVK	GKAAGTFDS	GPLM_Gen
1.58	4/6	GFQLNEYGIS	VIYSDGRRTFYMDSVK	GRFAGTFDS	GP_HC
2.93	1/6	GFELNSYGIS	VIYSDGRRTFYHDSVK	GRAGGTSDS	Ctrl
nd	0/6	GFDLNSYGIS	VIYSDGRRTFYGDSVK	GREAGRFRS	GP_HC
-0.39	6/6	GFDLNEYGIS	VIYADGMRTMYADSVK	GNVAGTFDV	En_Gen
nd	0/6	GFDLNSYGIS	VIYSDGRRTMYGDSVK	GRTAGTFDS	GP_Gen
1.16	3/6	GFSLESYGIS	VIYSDGRRTFYGDSVK	GAEAGTFDS	Ctrl
-0.17	6/6	GFDLNEYGIS	VIYADGMRTFYVDSVK	GETAGTFDS	En_HC
-0.48	5/6	GFDLNEYGIS	VIYADGKRTAYADSVK	GEVAGTFDN	En_Gen
nd	0/6	KFTLNSYGIS	VIYSDGRRTFYGDSVK	GRWAGTFDS	Ctrl
1.68	6/6	GFELNSYGIS	VIYSDGRRTFYGDSVK	GQAAGTFDQ	GPLM_Gen
0.83	2/6	GFQLNSYGIS	VIYSDGRRTFYSDRVK	GEAAGTFDK	GP_Gibbs
0.33	6/6	GFSLNSYGIS	VIYSDGRRTFYGDNVK	GQTAGTFDA	GP_Gibbs
-0.05	6/6	GFSLNDYGIS	VIYSDGRRTFYGDSVK	GSAAGTFDS	GPLM_Gen
-0.47	6/6	GFDLNEYGIS	VIYADGVRTAYSDSVK	GEAAGTFDV	En_HC
0.91	5/6	GFDLNEYGIS	VIYADGRRTFYADSVK	GNNAGTFIL	En_HC
-0.58	6/6	GFDLQEYGIS	VIYADGMRVSYSDNVK	GRGGVVFIA	En_Gibbs
-0.54	6/6	GFDLDEYGIS	VIYADGQRTFYADSVK	GNVAGTFDL	En_Gen
nd	0/6	GFDLMEYGIS	VIYADGKRTGYTDKVK	GMFGDTGKT	En_Gibbs
-0.04	6/6	GFDLNEYGIS	VIYADGMRTFYTDSVK	GTNAGTFDM	En_HC
nd	0/6	DFNLNEYGIS	VIYADGQRASYDDKVK	GQISGTFDD	En_Gibbs
1.15	4/6	GFNLNSYGIS	VIYSDGRRTFYIDSVK	GQAAGTFDK	GP_Gibbs
nd	0/6	GFTLNDYKIS	VIYFDGRRTQYIDSVK	GRAAGTGDS	Rand
1.30	6/6	GFEINDYGIS	VIYSDGHRTFYGDSVR	GKAADTFLS	Ctrl
nd	0/6	GFNISEYGIS	VIYADGMRSNYADSVK	GHKGNFFID	En_Gibbs
-0.40	6/6	GFDLNEYGIS	VIYADGQRTAYADSVK	GDNAGTFDV	En_Gen
0.10	6/6	GFELNSYGIS	VIYSDGRRTFYADDVK	GEAAGTFDS	GP_Gen
0.69	6/6	GFDLNEYGIS	VIYADGMRTAYANSVK	GNQAGTFDV	En_Gen
0.26	6/6	GFTLNSYGIS	VIYSDGRRTFYGDDVK	GNEAGTFDS	GPLM_Gibbs
nd	0/6	GFTLNSYGIS	VIYADGRRTFYGDSVK	GRALGTFDS	Ctrl
nd	0/6	GFDLQEYGIS	VIYADGYRTAYKQKVK	GQIAGGQFD	En_Gibbs

Data: MIT Lincoln Laboratory AlphaSeq set, Li et al. 2023, doi:10.1038/s41467-023-39022-2, as distributed in FLAb.